How the values were obtained:
[1] = biological target: T1, human opioid receptor-like (ORL-1) (Homo sapiens (Human), UniProt P41146); experiment: In vitro ORL-1 receptor binding assay ([3H]-nociceptin displacement)
[2] = biological target: T1, human opioid receptor-like (ORL-1); experiment: In vitro ORL-1 receptor [35S]GTPγS functional assay; type: biochemical; conditions: mean ± SEM; for EC50: read-out: GTPγS ORL-1 EC50
delta opioid receptor = delta opioid receptor (Homo sapiens (Human), UniProt P41143); experiment: In vitro delta-opioid receptor binding assay ([3H]-Naltrindole displacement); conditions: for Ki [Average ± Std Deviation] Opioid Receptor Delta: recombinant receptor expressed in CHO-K1 cells
μ-opioid receptor = μ-opioid receptor (Homo sapiens (Human), UniProt P35372); experiment: In vitro mu-opioid receptor [35S]GTPγS functional assay; conditions: mean ± SEM; for EC50: read-out: GTPγS Opioid Receptor Mu EC50
kappa opioid receptor = kappa opioid receptor (Homo sapiens (Human), UniProt P41145); experiment: In vitro kappa-opioid receptor [35S]GTPγS functional assay; type: biochemical; conditions: mean ± SEM; for EC50: read-out: GTPγS Opioid Receptor Kappa EC50

| SMILES | GTPγS ORL-1 Emax [2] | EC50 [2] | EC50 (kappa opioid receptor) | GTPγS Opioid Receptor Kappa Emax (kappa opioid receptor) | other results |
| --- | --- | --- | --- | --- | --- |
| CCC(C#Cc1ccccc1)N1[C@@H]2CC[C@H]1C[C@@H](n1c(=O)c(C(=O)O)nc3ccccc31)C2 (stereo partly drawn) | – | – | – | – | Ki [1]: > 20000 nM |
| CC(C)(C)C#CCN1[C@@H]2CC[C@H]1C[C@@H](n1c(=O)c(C(=O)O)nc3ccccc31)C2 | – | – | – | – | Ki [1]: 2840 nM |
| CC1(C)CCC(N2[C@@H]3CCC[C@H]2C[C@@H](n2c(=O)c(C(=O)O)nc4ccccc42)C3)CC1 | – | – | – | – | Ki [1]: 828 nM |
| O=C(O)c1cc(CNc2nc3ccccc3n([C@H]3C[C@H]4CC[C@@H](C3)N4C3CCCCCCC3)c2=O)ccc1O | 19 ± 1.5% | – | – | – | Ki [1]: 66.1 nM |
| O=C(O)c1nc2ccccc2n([C@H]2C[C@H]3CCC[C@@H](C2)N3C23CCCC(CCC2)C3)c1=O | – | – | – | – | Ki (delta opioid receptor): 2030 nM |
| O=C(O)c1nc2ccccc2n([C@@H]2C[C@H]3CC[C@@H](C2)N3C2CCCCCCC2)c1=O | – | – | – | – | Ki [1]: 299 nM |
| CN(CC(=O)O)[C@H]1CCN(c2nc3ccccc3n([C@H]3C[C@H]4CCC[C@@H](C3)N4C3CCCCCCC3)c2=O)C1 | – | 219 nM | 7660 nM | – | EC50 (μ-opioid receptor): 6980 nM |
| O=C(O)C1CCN(C(=O)c2nc3ccccc3n([C@H]3C[C@H]4CC[C@@H](C3)N4C3CCCCCCC3)c2=O)CC1 | – | – | – | – | Ki [1]: 632 nM |
| O=c1c(NCC(O)CO)nc2ccccc2n1[C@H]1C[C@H]2CC[C@@H](C1)N2C1CCCCCCC1 (stereo partly drawn) | – | 51.7 nM | 4150 nM | – | EC50 (μ-opioid receptor): 6200 nM |
| CCOC(=O)c1nc2ccccc2n([C@H]2C[C@H]3CCC[C@@H](C2)N3C(C)CCC(C)C)c1=O (stereo partly drawn) | – | 208 nM | 1510 nM | – | EC50 (μ-opioid receptor): 6180 nM |
| O=C(N[C@H](C(=O)O)c1ccccc1)c1nc2ccccc2n([C@H]2C[C@H]3CCC[C@@H](C2)N3C2CCCCCCC2)c1=O | – | 53.1 nM | 208 nM | – | EC50 (μ-opioid receptor): 5260 nM |
| NC(=O)C1CCN(c2nc3ccccc3n(C3CCN(C4CCCCCCC4)CC3)c2=O)CC1 | 85 ± 0.6% | – | – | – | Ki [Average ± Std Deviation] Opioid Receptor Delta (delta opioid receptor): inactive |
| O=C(O)c1nc2ccccc2n([C@H]2C[C@H]3CC[C@@H](C2)N3C2CCCCCCC2)c1=O | – | 184 nM | 1220 nM | – | EC50 (μ-opioid receptor): 4070 nM |
| CC1(C)[C@H]2CC[C@@H](CN3[C@@H]4CC[C@H]3C[C@@H](n3c(=O)c(C(=O)O)nc5ccccc53)C4)[C@@H]1C2 | – | – | – | – | Ki [1]: 398 nM |
| O=c1c(N2CCc3ccccc3C2)nc2ccccc2n1C1CCN(C2CCCCCCC2)CC1 | 88.3 ± 2.7% | 474 nM | 311 nM | 12.67 ± 1.5% | GTPγS Opioid Receptor Mu Emax (μ-opioid receptor): 1.77 ± 0.4%; EC50 (μ-opioid receptor): 6440 nM |
| NC(=O)c1nc2ccccc2n([C@H]2C[C@H]3CC[C@@H](C2)N3C2CCCCCCC2)c1=O | – | 61.3 nM | 1130 nM | – | EC50 (μ-opioid receptor): 7000 nM |
| CCC(C#CC(C)(C)C)N1[C@@H]2CC[C@H]1C[C@@H](n1c(=O)c(C(=O)O)nc3ccccc31)C2 (stereo partly drawn) | – | – | – | – | Ki [1]: 205 nM |
| C=CCNc1nc2ccccc2n(C2CCN(C3CCCCCCC3)CC2)c1=O | 78 ± 2.3% | – | 7120 nM | 15.7 ± 2.6% | – |
| CCOC(=O)c1nc2ccccc2n([C@H]2C[C@H]3CC[C@@H](C2)N3C2CC(C)(C)CC(C)(C)C2)c1=O | – | – | – | – | Ki [1]: 1300 nM |
| N[C@@H]1CCN(c2nc3ccccc3n(C3CCN(C4CCCCCCC4)CC3)c2=O)C1 | 107 ± 3.1% | 49.1 nM | 276 nM | 11 ± 2.5% | GTPγS Opioid Receptor Mu Emax (μ-opioid receptor): 2.33 ± 0.7%; EC50 (μ-opioid receptor): 6120 nM |
| O=c1c(NCCO)nc2ccccc2n1C1CCN(C2CCCCCCC2)CC1 | 51.7 ± 3.7% | 602 nM | – | – | Ki (delta opioid receptor): > 100000 nM |
| N#Cc1nc2ccccc2n(C2CCN(C3CCCCCCC3)CC2)c1=O | 110.7 ± 2.9% | – | 2280 nM | 16 ± 0.6% | – |
| CCOC(=O)c1nc2ccccc2n([C@H]2C[C@H]3CCC[C@@H](C2)N3C2CCC(C)(C)CC2)c1=O | – | – | – | – | Ki [1]: 374 nM |
| O=C(NCC(O)CO)c1nc2ccccc2n([C@H]2C[C@H]3CC[C@@H](C2)N3C2CCCCCCC2)c1=O (stereo partly drawn) | – | 66.9 nM | 2560 nM | – | EC50 (μ-opioid receptor): 3600 nM |
| NC(=O)CNc1nc2ccccc2n([C@H]2C[C@H]3CC[C@@H](C2)N3C2CCCCCCC2)c1=O | – | 72.7 nM | 6000 nM | – | EC50 (μ-opioid receptor): 3570 nM |
| COC(=O)C(CO)Nc1nc2ccccc2n(C2CCN(C3CCCCCCC3)CC2)c1=O (stereo not drawn) | 112.7 ± 2.3% | – | – | 30 ± 1.5% | – |
| COC(=O)c1ccc2c(c1)CN(c1nc3ccccc3n(C3CCN(C4CCCCCCC4)CC3)c1=O)CC2 | 38 ± 3.8% | – | 980 nM | 20.33 ± 1.9% | – |

| SMILES | GTPγS ORL-1 Emax [2] | EC50 [2] | EC50 (kappa opioid receptor) | GTPγS Opioid Receptor Kappa Emax (kappa opioid receptor) | other results |
| --- | --- | --- | --- | --- | --- |
| NC(=O)CNc1nc2ccccc2n(C2CCN(C34CC5CC(CC(C5)C3)C4)CC2)c1=O | 87.7 ± 2.3% | – | – | – | Ki [Average ± Std Deviation] Opioid Receptor Delta (delta opioid receptor): inactive |
| O=c1c(NC[C@@H](O)CO)nc2ccccc2n1[C@H]1C[C@H]2CC[C@@H](C1)N2C1CCCCCCC1 | – | 103 nM | 960 nM | – | EC50 (μ-opioid receptor): 4500 nM |
| CC(C)(C)OC(=O)N1CC2CN(c3nc4ccccc4n(C4CCN(C5CCCCCCC5)CC4)c3=O)CC2C1 (stereo not drawn) | 83 ± 1.5% | 1000 nM | 846 nM | 30.5 ± 2.9% | – |
| COc1ccc(Nc2nc3ccccc3n(C3CCN(C4CCCCCCC4)CC3)c2=O)cn1 | 43 ± 2.1% | 1080 nM | 187 nM | 26 ± 7% | – |
| O=C(N[C@H](C(=O)O)c1ccccc1)c1nc2ccccc2n([C@H]2C[C@H]3CC[C@@H](C2)N3C2CCCCCCC2)c1=O | – | 78.6 nM | 28100 nM | – | EC50 (μ-opioid receptor): 20600 nM |
| O=c1c(NCc2ccccc2)nc2ccccc2n1C1CCN(C2CCCCCCC2)CC1 | 85.3 ± 4.4% | 76 nM | 1640 nM | 34.7 ± 1.7% | – |
| CC(C)CC(C)N1[C@@H]2CC[C@H]1C[C@@H](n1c(=O)c(C(=O)O)nc3ccccc31)C2 (stereo partly drawn) | – | 925 nM | 1170 nM | – | – |
| NCCNc1nc2ccccc2n(C2CCN(C3CCCCCCC3)CC2)c1=O | 39 ± 1.5% | 79.1 nM | 1520 nM | 12 ± 0.6% | – |
| CS(=O)(=O)N1CCC(Nc2nc3ccccc3n(C3CCN(C4CCCCCCC4)CC3)c2=O)CC1 | 68 ± 2.5% | 367 nM | – | – | GTPγS Opioid Receptor Mu Emax (μ-opioid receptor): 6 ± 4% |
| CC(C)(C)OC(=O)NCCNc1nc2ccccc2n(C2CCN(C3CCCCCCC3)CC2)c1=O | 67.3 ± 1.9% | – | 9780 nM | 14.7 ± 1.5% | – |
| CC(C)(C1CCCCCCC1)N1[C@@H]2CCC[C@H]1C[C@@](C)(n1c(=O)c(C(=O)O)nc3ccccc31)C2 | – | – | – | – | Ki [1]: 289 nM |
| CCOC(=O)[C@@H]1CN(CCNc2nc3ccccc3n([C@H]3C[C@H]4CCC[C@@H](C3)N4C34CC5CC(CC3C5)C4)c2=O)C[C@H]1C(=O)OCC | – | – | – | – | Ki [1]: 493 nM |
| O=c1c(NC(CO)CO)nc2ccccc2n1C1CCN(C2CCCCCCC2)CC1 | 78.3 ± 3.8% | 84.9 nM | 6570 nM | 16.7 ± 0.3% | – |
| O=c1c(N2CCNCC2)nc2ccccc2n1C1CCN(C2CCCCCCC2)CC1 | 34 ± 1.5% | 553 nM | 2230 nM | 39.8 ± 4.8% | – |
| CC(CC(=O)O)Nc1nc2ccccc2n(C2CCN(C3CCCCCCC3)CC2)c1=O (stereo not drawn) | – | – | – | – | Ki [1]: 836 nM |
| CCOC(=O)c1nc2ccccc2n([C@H]2C[C@H]3CCC[C@@H](C2)N3C(C)CC(C)C)c1=O (stereo partly drawn) | – | 85 nM | 1480 nM | – | – |
| O=C1CNc2ccccc2N1C1CCN(C2CCCCCCC2)CC1 | – | 197 nM | 1940 nM | – | EC50 (μ-opioid receptor): 3120 nM |
| O=C1CN(c2nc3ccccc3n([C@H]3C[C@H]4CC[C@@H](C3)N4C3CCCCCCC3)c2=O)CCN1 | 78.7 ± 3% | 195 nM | 382 nM | 6.7 ± 1.8% | – |
| O=c1ccc(Nc2nc3ccccc3n(C3CCN(C4CCCCCCC4)CC3)c2=O)c[nH]1 | 98.7 ± 9.5% | 169 nM | 5330 nM | 10 ± 0.6% | – |
| CCOC(=O)c1nc2ccccc2n([C@@H]2C[C@H]3CCC[C@@H](C2)N3C/C=C2\CCC3CC2C3(C)C)c1=O | – | 37.6 nM | > 20000 nM | – | – |
| CC1(C)[C@H]2CC[C@@H](CCN3[C@@H]4CC[C@H]3C[C@@H](n3c(=O)c(C(=O)O)nc5ccccc53)C4)[C@@H]1C2 | – | 9.22 nM | > 20000 nM | – | EC50 (μ-opioid receptor): 572 nM |
| O=C(O)C1(N2CCC(n3c(=O)c(N4CC5CNCC5C4)nc4ccccc43)CC2)CCCCCCC1 (stereo not drawn) | – | – | – | – | Ki [1]: > 100000 nM |
| O=c1c(NC2CCNCC2)nc2ccccc2n1C1CCN(C2CCCCCCC2)CC1 | 76.3 ± 3.9% | 335 nM | 1400 nM | 39.3 ± 2.0% | – |
| O=C1NC(=O)C2(CCN(c3nc4ccccc4n([C@H]4C[C@H]5CC[C@@H](C4)N5C4CCCCCCC4)c3=O)CC2)N1 | 90% | 175 nM | > 20000 nM | 0.25% | GTPγS Opioid Receptor Mu Emax (μ-opioid receptor): 21%; EC50 (μ-opioid receptor): > 20000 nM |
| O=C(O)c1nc2ccccc2n([C@H]2C[C@H]3CC[C@@H](C2)N3C2C=CCCCC2)c1=O (stereo partly drawn) | – | – | – | – | Ki [1]: 611 nM |
| O=c1c(N2CC[C@@H](O)C2)nc2ccccc2n1C1CCN(C2CCCCCCC2)CC1 | 74.3 ± 6.0% | – | 2270 nM | 3.3 ± 0.7% | – |
| CC1(C)CC(N2[C@@H]3CC[C@H]2C[C@@H](n2c(=O)c(C(=O)O)nc4ccccc42)C3)CC(C)(C)C1 | – | – | – | – | Ki [1]: 496 nM |

— patent US8846929B2, “Substituted-quinoxaline-type piperidine compounds and the uses thereof” (priority 2007, dated 2014)
